# Test results as given in PubChem BioAssay AID488899 (Broad Institute, 2010).
# This is a selection; strong and weak results do not stand in their true shares. Some tests of the compounds listed are not included; inactive here does not mean inactive elsewhere. Active and inactive are the calls of the source.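 The calls were made as follows: active = mean inhibition across replicates of 60% or more, whatever share of single replicates reaches that level; inconclusive = some that reach 60%, reason not given; inactive = mean inhibition across replicates below 60%.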
# Test: inhibitors of MITF-dependent TRPM1 promoter reporter, primary screen, cell-based, SK-MEL-5, single point, luciferase (AID 488899)
# Settings: SK-MEL-5 TRPM1 promoter luciferase, 24 h; at 12.5 µM; active compounds read high
row,SMILES,inhibition
1,CN1[C@@H]2CC[C@H]1CC(OC(=O)C(O)(c1ccccc1)c1ccccc1)C2 (stereo not given in full),inactive: -7.63%
2,O=C(NCC1(N2CCCCC2)CCCCC1)c1cc([N+](=O)[O-])ccc1Cl,inactive: 6.52%
3,Cc1ccc(C(=O)NCC2(N3CCCCC3)CCCCC2)cc1,inactive: -15.5%
4,COc1cc(SC)ccc1C(=O)NCC1(N(C)C)CCCCC1,inactive: -0.435%
5,CCN(CC)CC(C)C(C)OC(=O)C(O)(c1ccccc1)c1ccccc1 (stereo not given),inactive: 10.5%
6,CC(C)N1C(=O)CC2(CCN(CCOC(=O)C(O)(c3ccccc3)c3ccccc3)CC2)C1=O,inactive: -6.32%
7,CN(C)C1CCCC1OC(=O)C(O)(c1ccccc1)c1ccccc1 (stereo not given),inactive: -4.68%
8,CN(C)c1ccc(C(=O)NCC2(N(C)C)CCCCC2)cc1,inactive: 3.78%
9,Cc1ccccc1C(=O)NCC1(N2CCCCC2)CCCCC1,inactive: 0.072%
10,COc1ccc(C(=O)NCC2(N(C)C)CCCCC2)cc1,inactive: 2.34%
11,O=C(NCC1(N2CCCCC2)CCCCC1)c1cccc(Br)c1,inactive: -11.9%
12,Cc1cc(C(=O)NCC2(N3CCCCC3)CCCCC2)ccc1[N+](=O)[O-],inactive: -1.49%
13,CCN1CCCC(OC(=O)C2(O)c3ccccc3C=Cc3ccccc32)C1 (stereo not given),inactive: 3.27%
14,O=C(NCC1(N2CCCCC2)CCCCC1)c1cc(F)c(F)cc1Cl,inactive: -10.1%
15,C=CCN1CCN(CCOC(=O)C(O)(c2ccccc2)c2ccccc2)CC1,inactive: 3.26%
16,COc1cc(C(=O)NCC2(N(C)C)CCCCC2)c([N+](=O)[O-])cc1OC,inactive: -23.8%
17,CN(C)C1(CNC(=O)c2ccc(Br)cc2)CCCCC1,inactive: -5.04%
18,O=C(NCC1(N2CCCCC2)CCCCC1)c1cccc(Cl)c1,inactive: -10.5%
19,COc1ccc(Cl)cc1C(=O)NCC1(N(C)C)CCCCC1,inactive: 4.3%
20,COc1cccc(C(=O)NCC2(N3CCCCC3)CCCCC2)c1,inactive: 6.46%
21,O=C(OC1CN2CCC1CC2)C(CO)(c1ccccc1)c1ccccc1 (stereo not given),inactive: -0.186%
22,O=C(OCCN1CCCC1)C(O)(c1ccccc1)c1ccccc1,inactive: 1.06%
23,CC(C)Oc1ccc(C(=O)NCC2(N(C)C)CCCCC2)cc1,inactive: -6.79%
24,CN(C)c1cccc(C(=O)NCC2(N(C)C)CCCCC2)c1,inactive: 15%
25,COc1ccc(Br)c(C(=O)NCC2(N3CCCCC3)CCCCC2)c1,inactive: -3.47%
